Laboratory results reported in patent US20160122821A1, “GENETIC MARKERS OF ANTIPSYCHOTIC RESPONSE” (SUREGENE, LLC, priority 2013, published 2016).

Tested on: Caucasian patients with schizophrenia (CATIE)
Experiment: Genetic association (linear regression, additive model) of SNP alleles with MMRM-modelled change in PANSS Total Score under antipsychotic treatment, CATIE trial
Format: in vivo, human
Method: For the CATIE study, individual cases were diagnosed as having SZ based on DSM-III/IV criteria. Treatment response for all patients was assessed using the Positive and Negative Syndrome Scale (PANSS) (Kay et al., 1987; Kay et al., 1989; Leucht et al., 2005). […] To avoid possible bias in post hoc selection of a treatment response variable, the inventors used the mixed model repeated measures (MMRM) approach developed by van den Oord and coworkers (van den Oord et al., 2009). […] The design of the CATIE study, including details of consent for genetic analyses, has been described in detail by others (Lieberman et al., 2005; Stroup et al., 2003; Sullivan et al., 2008). Only retrospective genetic analyses, judged to be exempt from human studies requirements by an IRB, were conducted in the current study. Consented DNA samples were obtained from the Rutgers University Cell and DNA Repository in collaboration with […]. […] All of these patients self-reported as having exclusively European ancestry. […] Genotyping was performed on a fee for service basis according to Illumina's standard operating procedures. Raw intensity files were processed using Illumina® BeadStudio version 1.7.4 software. […] Only two of these had been previously genotyped in the CATIE sample. […] To allow comparison to previously published PGx findings for CATIE and to avoid possible bias in post-hoc selection of a treatment response variable, the inventors used the mixed model repeated measures (MMRM) approach developed by Van den Oord and coworkers (van den Oord et al., 2009; […] et al., 2011). Briefly, this method models random effects by introducing random slopes for treatment effects, allowing treatment effects to be different across subjects. The MMRM approach serves to increase the statistical power to detect genetic associations by increasing the precision in measuring change in PANSS Total Score (PANSS-T) by accounting for variance due to baseline PANSS-T, and treatment, as well as smoothing out the random fluctuations in PANSS-T between visits due to various uncontrolled variables. […] Bozeman, Mont.). Quantile-Quantile (QQ) plots were prepared using the R statistical package version 2.14.1. For comparison purposes, original CATIE-provided SNP genotypes in specific genes were evaluated using the same genetic analysis. Haplotype association integrating newly generated and original genotypes for specific regions was carried out in SVS using haplotype blocks predefined by Haploview software. […] For each of the SNPs listed the reference SNP (rs) number is provided, which provides the known sequence context for the given SNP (see, e.g., National Center for Biotechnology Information (NCBI) SNP database available on the world wide web at ncbi.nlm.nih.gov/snp).

Q: `Cc1cc2c(s1)Nc1ccccc1N=C2N1CCN(C)CC1` [Olanzapine, olanzapine] was tested. Which “Beta (PANSS)” value (ATP2B2 rs3774155 allele A) did it give?
A: The value was 3.48 PANSS.

Q: What about the “Beta (PANSS)” value (C8orf34 rs2591003 allele A) of the same compound?
A: Its value is 3.76 PANSS.

Q: What about the “Beta (PANSS)” value (CNTNAP2 rs6957194 allele A) of the same compound?
A: Its value is 3.62 PANSS.

Q: And the “Beta (PANSS)” value (CNTNAP2 rs10240221 allele A)?
A: The value was 3.17 PANSS.

Q: And the “Beta (PANSS)” value (CNTNAP2 rs10263151 allele C)?
A: Its value is 3.55 PANSS.

Q: And the “Beta (PANSS)” value (CSMD1 rs2449210 allele C)?
A: Its value is 2.89 PANSS.

Q: What about the “Beta (PANSS)” value (ERC2 rs2047566 allele C) of the same compound?
A: The value was 3.62 PANSS.

Q: What about the “Beta (PANSS)” value (ERCC6 rs2228527 allele A) of the same compound?
A: The value was 3.86 PANSS.

Q: What about the “Beta (PANSS)” value (GPSM1 rs7853207 allele C) of the same compound?
A: The value was 3.92 PANSS.

Q: And the “Beta (PANSS)” value (KCNIP1 rs10050842 allele A)?
A: Its value is 3.26 PANSS.

Q: What about the “Beta (PANSS)” value (PPA2 rs923587 allele C) of the same compound?
A: Its value is 3.86 PANSS.

Q: And the “Beta (PANSS)” value (QRFPR rs11098616 allele A)?
A: The value was 3.26 PANSS.

Q: And the “Beta (PANSS)” value (SLC25A21 rs848097 allele C)?
A: The value was 3.49 PANSS.

Q: And the “Beta (PANSS)” value (WWC1 rs10042345 allele C)?
A: Its value is 3.55 PANSS.
